Results as given in PubChem BioAssay AID2810 (NMMLSC, 2010).
The list shows a part of the results, in another mix than the full data. The source made the active and inactive calls.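 The calls were made as follows: active = at either tested dose, response and 90th-percentile vesicle-stain brightness of CD8 cells under set limits and under 9% cells vesicle-bound; inactive = the rest.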

Assay: modulators of CD8 T cell-vesicle binding, confirmation, cherry-picked primary hits, two concentrations (AID 2810);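 also: ratio of mean FL2 vesicle stain of CD8+ cells to that row's control; lower values mean blocking of vesicle binding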
Details: 2C CD8+ T cell-vesicle binding, flow cytometry; at 15.4 µM; active compounds read low
In the case of `CCOC(=O)c1ccc(NP(C)(=O)Oc2ccccc2)cc1` (configuration not stated), the percent response (vesicle binding) is reported as inactive: 220%.
With `COc1ccccc1OP(C)(=O)Nc1c(C)cccc1C` (configuration not stated) the percent response (vesicle binding) was inactive: 160%.
